From PMC9536601

Molecular target: hexon of wild-type human adenovirus type 1 (on virions) (human adenovirus 1)
Assay: SPR; Biacore T200; about 300 to 5,000 RU of Ad virions immobilised on a CM5 chip, coagulation factors flowed over at four concentrations, 50 uL/min; running buffer 10 mM HEPES, 150 mM NaCl, 1 mM CaCl2, 0.5 mM MgCl2, 0.1% BSA, 0.05% polysorbate 20, pH 7.4; regeneration with 3 mM EDTA; global fit to a 1:1 kinetic interaction model, double referencing

Q: “human prothrombin (coagulation factor II) (from UniProt P00734 44-622) (natural protein)” was tested. Which Kd did it give?
A: The Kd was 5 nM.

Q: What about the koff of the same substance?
A: Its koff is 0.000511 s⁻¹.

Q: What about the kon of the same substance?
A: Its kon is 102000 M⁻¹ s⁻¹.
